Measured values taken from US8163756B2 (priority 2004, dated 2012).

By UniProt entry, the sequences of proteins in these tests, tags left out. Chains listed by the source or under a name are the forms on record and can include a tag or linker. Residues count along the entry.
UniProt P00519, 229-512: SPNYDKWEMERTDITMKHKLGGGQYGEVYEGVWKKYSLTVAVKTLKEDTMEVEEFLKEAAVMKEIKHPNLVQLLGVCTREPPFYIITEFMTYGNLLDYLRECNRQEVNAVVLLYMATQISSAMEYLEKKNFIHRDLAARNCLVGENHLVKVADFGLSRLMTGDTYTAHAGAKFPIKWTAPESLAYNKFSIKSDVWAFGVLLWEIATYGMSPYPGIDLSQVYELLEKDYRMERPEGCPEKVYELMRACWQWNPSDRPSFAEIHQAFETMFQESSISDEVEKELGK
UniProt P15056, 423-766 with tags or gaps V600E limits assumed: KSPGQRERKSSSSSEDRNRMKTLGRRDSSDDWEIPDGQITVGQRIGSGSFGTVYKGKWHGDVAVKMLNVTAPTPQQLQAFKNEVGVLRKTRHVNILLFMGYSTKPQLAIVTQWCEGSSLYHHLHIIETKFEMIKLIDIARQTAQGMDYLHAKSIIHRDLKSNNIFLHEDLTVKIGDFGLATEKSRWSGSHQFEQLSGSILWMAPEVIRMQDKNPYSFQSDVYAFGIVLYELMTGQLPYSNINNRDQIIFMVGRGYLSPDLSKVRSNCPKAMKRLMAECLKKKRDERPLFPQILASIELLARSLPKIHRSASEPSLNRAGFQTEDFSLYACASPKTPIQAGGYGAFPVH
UniProt P15056, 433-726 V600E limits assumed: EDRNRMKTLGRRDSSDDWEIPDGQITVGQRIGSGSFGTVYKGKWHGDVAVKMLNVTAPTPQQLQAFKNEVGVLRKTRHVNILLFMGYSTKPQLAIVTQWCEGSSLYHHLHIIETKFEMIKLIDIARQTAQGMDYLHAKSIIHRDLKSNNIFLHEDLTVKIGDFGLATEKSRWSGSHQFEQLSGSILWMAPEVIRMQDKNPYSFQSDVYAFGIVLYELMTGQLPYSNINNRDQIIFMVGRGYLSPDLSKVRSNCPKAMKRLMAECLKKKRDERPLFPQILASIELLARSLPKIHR

Key:
[1] = biological target: T1, Abl kinase (Homo sapiens, UniProt P00519); test: Abl kinase assay A2 (as A1, 1.1 nM enzyme, 2 h pre-incubation, 0.5 mM ATP); format: biochemical; settings: read-out: Abl Data (IC50), Method A2
[2] = biological target: T2, B-Raf(V599E) kinase (Homo sapiens, UniProt P15056, V600E); test: B-Raf(V599E) kinase assay B2 (construct 2 at 2 nM, 1 h pre-incubation); settings: read-out: B-Raf Data; Method B2
[3] = biological target: T2, B-Raf(V599E) kinase; test: B-Raf(V599E) kinase assay B1 (construct 1, MEK1 substrate, coupled spectrophotometric); settings: read-out: B-Raf Data, Method B1
[4] = biological target: T1, Abl kinase; test: Abl kinase assay A1 (pyruvate kinase/lactate dehydrogenase coupled, spectrophotometric); settings: read-out: Abl Data (IC50); Method A1

Structure (SMILES): Cn1c(=O)c(-c2cccc(NC(=O)Nc3cc(C(C)(C)C)nn3-c3ccc4nc(N5CCNCC5)ccc4c3)c2)cc2cncnc21
- IC50 [1]: 21 nM
- IC50 [2]: 194 nM

Structure (SMILES): CC(C)(C)c1cc(NC(=O)Nc2cccc(Cl)c2Cl)n(-c2ccc3c(c2)C(=NO)CC3)n1
- IC50 [3]: 3.6 nM

Structure (SMILES): Cn1c(=O)c(-c2cccc(NC(=O)Nc3cc(C(C)(C)C)nn3-c3ccc4c(c3)CCN4)c2)cc2cncnc21
- IC50 [1]: 31 nM
- IC50 [2]: 29 nM

Structure (SMILES): CC(O)c1cc(-n2nc(C(C)(C)C)cc2NC(=O)Nc2cccc(Cl)c2Cl)cc2ccccc12 (stereo not drawn)
- IC50 [4]: 360 nM
- IC50 [3]: 7.1 nM

Structure (SMILES): Cn1c(=O)c(-c2cccc(NC(=O)Nc3cc(C(C)(C)C)nn3-c3ccc4[nH]c(=O)ccc4c3)c2)cc2cncnc21
- IC50 ([3]; tested form: HCl): 8.4 nM
- IC50 ([1]; tested form: HCl): 18 nM
